Columns and labels:
[1] = biological target: [Pyruvate dehydrogenase (acetyl-transferring)] kinase isozyme 2, mitochondrial (Homo sapiens, UniProt Q15119)
[2] = biological target: T1, [Pyruvate dehydrogenase (acetyl-transferring)] kinase isozyme 1, mitochondrial (Homo sapiens, UniProt Q15118); assay: Inhibition of full length His6-tagged PDK1 (unknown origin) expressed in Escherichia coli assessed as inactivation rate using full length His6-tagged PDHA1 as substrate up to 45 mins by ELISA
[3] = biological target: [Pyruvate dehydrogenase (acetyl-transferring)] kinase isozyme 3, mitochondrial (Homo sapiens, UniProt Q15120)
[4] = biological target: T1, [Pyruvate dehydrogenase (acetyl-transferring)] kinase isozyme 1, mitochondrial; assay: Ratio of Kinact to Ki for full length His6-tagged PDK1 (unknown origin) expressed in Escherichia coli

The chains behind the UniProt entries cited, without tags or fusion partners.
UniProt Q15118, whole entry, looked up: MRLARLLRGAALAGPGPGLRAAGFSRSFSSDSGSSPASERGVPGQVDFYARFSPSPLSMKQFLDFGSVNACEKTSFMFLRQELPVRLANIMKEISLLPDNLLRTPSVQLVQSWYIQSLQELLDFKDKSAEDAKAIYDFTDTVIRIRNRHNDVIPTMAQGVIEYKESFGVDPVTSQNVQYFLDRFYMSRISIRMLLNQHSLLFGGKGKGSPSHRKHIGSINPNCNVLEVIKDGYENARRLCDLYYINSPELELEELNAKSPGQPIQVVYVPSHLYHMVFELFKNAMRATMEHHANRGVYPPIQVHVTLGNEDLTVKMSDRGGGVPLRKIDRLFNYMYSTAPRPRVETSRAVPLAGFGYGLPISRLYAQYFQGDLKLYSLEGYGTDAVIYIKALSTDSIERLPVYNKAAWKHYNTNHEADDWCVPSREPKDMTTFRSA
UniProt Q15120, whole entry, looked up: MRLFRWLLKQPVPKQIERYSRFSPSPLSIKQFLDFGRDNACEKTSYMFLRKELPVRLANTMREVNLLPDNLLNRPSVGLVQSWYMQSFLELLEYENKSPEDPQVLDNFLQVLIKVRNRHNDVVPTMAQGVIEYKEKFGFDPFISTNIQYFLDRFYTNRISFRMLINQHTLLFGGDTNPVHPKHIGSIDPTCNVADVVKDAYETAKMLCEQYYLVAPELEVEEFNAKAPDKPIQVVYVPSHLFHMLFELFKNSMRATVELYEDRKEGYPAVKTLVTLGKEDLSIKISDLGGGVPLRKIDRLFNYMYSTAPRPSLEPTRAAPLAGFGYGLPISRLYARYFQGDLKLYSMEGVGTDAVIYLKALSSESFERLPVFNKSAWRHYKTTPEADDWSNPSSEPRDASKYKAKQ

Structure (SMILES)	Kinact [1]	Kinact [2]	Kinact [3]	Ratio [4]
S=C(SSC(=S)N1CCCOCC1)N1CCCOCC1	1.56 ×10⁻⁴ /s	5.47 ×10⁻⁴ /s	8.58 ×10⁻⁴ /s	5.14 ×10³ /M/s
S=C(SSC(=S)N1CCOCC1)N1CCOCC1	0.99 ×10⁻⁴ /s	8.75 ×10⁻⁴ /s	12.8 ×10⁻⁴ /s	1.94 ×10³ /M/s
COC[C@@H]1COCCN1C(=S)SSC(=S)N1CCOC[C@H]1COC	2.07 ×10⁻⁴ /s	4.43 ×10⁻⁴ /s	17.6 ×10⁻⁴ /s	4.17 ×10³ /M/s
COC[C@H]1COCCN1C(=S)SSC(=S)N1CCOC[C@@H]1COC		4.95 ×10⁻⁴ /s		4.06 ×10³ /M/s
